The values below are quoted from earlier work in patent US10500232B2, “Small molecule cellular reprogramming to generate neuronal cells” (The J. David Gladstone Institutes, a testamentary trust …, priority 2013, dated 2019).

By UniProt entry, the sequences of proteins in these tests, tags left out.
UniProt Q13547, whole entry, species assumed: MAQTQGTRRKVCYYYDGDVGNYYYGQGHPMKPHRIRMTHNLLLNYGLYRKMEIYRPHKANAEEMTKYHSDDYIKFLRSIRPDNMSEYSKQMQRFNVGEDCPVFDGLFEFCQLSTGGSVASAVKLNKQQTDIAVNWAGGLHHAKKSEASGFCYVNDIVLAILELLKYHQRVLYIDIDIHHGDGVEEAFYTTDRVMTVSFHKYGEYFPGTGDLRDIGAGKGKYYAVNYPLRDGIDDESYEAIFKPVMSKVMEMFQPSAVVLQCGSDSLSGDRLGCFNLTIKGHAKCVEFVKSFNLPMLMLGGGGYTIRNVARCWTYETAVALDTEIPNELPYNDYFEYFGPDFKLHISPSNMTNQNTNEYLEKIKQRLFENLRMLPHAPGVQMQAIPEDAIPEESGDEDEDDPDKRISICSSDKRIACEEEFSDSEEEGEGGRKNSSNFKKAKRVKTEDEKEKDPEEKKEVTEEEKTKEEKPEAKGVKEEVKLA

For orientation: IC50 means the concentration that gives 50% inhibition.

This data set deals with HDAC1 (Homo sapiens, UniProt Q13547). Conditions: cited from earlier work.

For the substance “4,5:8,9-Dianhydro-1,2,6,7,11-pentadeoxy-D-threo-D-ido-undeca-1,6-dienitol [Depudecin]”, the concentration for half-maximal inhibition (IC50) is about 4.7 µM.
